Laboratory results reported in ChEMBL document CHEMBL4261641, “Structure-Based Approach toward Identification of Inhibitory Fragments for Eleven-Nineteen-Leukemia Protein (ENL)” (J Med Chem, 2018).
Activity calls are given as the source filed them. No cut-off for these calls is given here.

Molecular target: T1, Protein ENL (Homo sapiens) (UniProt Q03111)
T1 sequence (whole entry): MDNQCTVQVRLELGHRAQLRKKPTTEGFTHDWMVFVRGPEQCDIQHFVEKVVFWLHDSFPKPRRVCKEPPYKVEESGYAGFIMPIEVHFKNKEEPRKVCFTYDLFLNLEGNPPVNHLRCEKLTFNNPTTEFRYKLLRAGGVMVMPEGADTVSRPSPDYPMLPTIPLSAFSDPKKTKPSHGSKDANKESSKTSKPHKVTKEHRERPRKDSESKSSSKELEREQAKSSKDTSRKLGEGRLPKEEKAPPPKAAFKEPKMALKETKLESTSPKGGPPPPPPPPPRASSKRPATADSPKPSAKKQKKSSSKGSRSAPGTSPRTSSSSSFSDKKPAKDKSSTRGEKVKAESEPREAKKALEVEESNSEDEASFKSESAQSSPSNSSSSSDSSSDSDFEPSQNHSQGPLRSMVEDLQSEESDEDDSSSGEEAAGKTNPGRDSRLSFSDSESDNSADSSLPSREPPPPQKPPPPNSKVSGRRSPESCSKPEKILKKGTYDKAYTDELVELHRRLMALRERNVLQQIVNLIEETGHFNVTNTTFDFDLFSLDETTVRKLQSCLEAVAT
Experiment: Binding affinity to recombinant C-terminal His6-tagged ENL YEATS domain (1 to 148 residues) (unknown origin) expressed in expressed Escherichia coli Rosetta assessed as change in melting temperature by thermal shift assay

SMILES	Activity
N#CCC(=O)Nc1cccnc1	inactive
CC(=O)Nc1ccc2c(c1)nc(C)n2C	inactive
Cn1c(CN2CCCCC2)nc2cc(NC(=O)c3ccc(Cl)cc3)ccc21	inactive
O=C(c1cnccn1)N1CCSCC1	inactive
Cc1ccc(C(=O)Nc2cccnc2)cc1	inactive
O=C(O)Cc1ccc(NC(=O)c2cccc(-c3cc(Cl)cc(Cl)c3)c2)cc1	inactive
CC(=O)Nc1ccncc1	inactive
O=C(CCl)Nc1cccnc1	inactive
CC(=O)Nc1ncnc2[nH]cnc12	inactive
O=C(Nc1ccc2nccnc2c1)c1ccc(F)cc1	inactive
O=C(Cc1cccc(F)c1)NC1=NCCS1	inactive
O=C(CCl)Nc1ccccc1	inactive
Cc1ccc(CC(=O)Nc2cccnc2)cc1	inactive
O=C(Cn1ccc2ccccc21)Nc1ccc2[nH]ccc2c1	inactive
O=C(Nc1ccc(Cl)c(Cl)c1)Nc1cccc2cccnc12	inactive
Cc1ccc(C(=O)Nc2cccc3cccnc23)cc1C	inactive
CC(=O)Nc1ccc2cc[nH]c2c1	inactive
CC(C)(C)c1ccc(C(=O)Nc2ccc(CCC(=O)O)cc2)cc1	inactive
O=C(NCc1cccc(Cl)c1)c1ccc2c(c1)ncn2CCN1CCCC1	inactive
